Consider 2 substances from patent US20070081991A1, “Compositions and methods for modulation of immune responses” (Pepgen Corporation, priority 2001, published 2007).

Chains of the proteins cited; added tags and fusions are not shown. Lines headed by an entry give the natural chain unless they say otherwise; changes in a name come on top.
UniProt P26717: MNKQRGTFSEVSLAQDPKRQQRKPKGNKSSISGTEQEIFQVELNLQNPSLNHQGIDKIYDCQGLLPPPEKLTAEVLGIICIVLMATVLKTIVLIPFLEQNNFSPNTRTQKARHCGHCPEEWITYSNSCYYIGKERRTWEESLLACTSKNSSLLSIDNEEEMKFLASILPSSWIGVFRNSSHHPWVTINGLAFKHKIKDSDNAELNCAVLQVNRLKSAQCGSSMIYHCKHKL
UniProt Q13241: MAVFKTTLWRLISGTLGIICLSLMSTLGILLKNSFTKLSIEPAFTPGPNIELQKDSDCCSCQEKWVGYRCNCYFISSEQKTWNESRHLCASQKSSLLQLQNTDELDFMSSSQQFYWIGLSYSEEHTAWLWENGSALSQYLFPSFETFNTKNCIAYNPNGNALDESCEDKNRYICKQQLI
UniProt P26715: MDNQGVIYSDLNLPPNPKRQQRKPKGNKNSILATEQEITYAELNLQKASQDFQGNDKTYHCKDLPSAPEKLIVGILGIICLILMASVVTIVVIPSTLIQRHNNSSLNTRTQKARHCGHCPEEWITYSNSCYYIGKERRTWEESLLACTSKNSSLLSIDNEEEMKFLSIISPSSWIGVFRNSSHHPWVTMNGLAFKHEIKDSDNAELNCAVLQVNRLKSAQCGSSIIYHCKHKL

Experiment [1] has as its system NK cells expressing CD94/NKG2A (NKL). Kind of experiment: HLA-E tetramer staining of NK cell lines and freshly isolated NK cells. The class given is binding, human. How it is done: (§1) (a) Ba/F3 cells transfected with CD94 and NKG2A were incubated with HLA-E/B7sp tetramers-(bold line), HLA-E/hsp60sp-tetramers (thin line), or control H-2Db/gp33-tetramers (dashed line). (b) Ba/F3 cells transfected with CD94, NKG2C and DAP-12 were incubated with HLA-E/B7sp-tetramers (bold line), HLA-E/hsp60sp-tetramers (thin line), or control H-2Db/gp33-tetramers (dashed line). (c) The NK cell line NKL was incubated with HLA-E/B7sp-tetramers (bold line), HLA-E/hsp60sp-tetramers (thin line), or control H-2Db/gp33-tetramers (dashed line). (d) HB-120 B-cell hybridoma (anti-MHC class I) was incubated with HLA-E/B7sp-tetramers (bold line), HLA-E/hsp60sp-tetramers (thin line), or control H-2Db/gp33-tetramers (dashed line). All incubations were done at 4° C. for 45 min in PBS supplemented with 1% FCS. […] This is one representative experiment of more than 5 that were conducted.
(§2) K562 (human HLA-class I negative erythroleukemia), and 721.221 (human HLA-class I low B-lymphoblastoid cell) were maintained in RPMI 1640 (Life Technologies, Gaithersburg, Md.) supplemented with 10% heat-inactivated FCS, 2 mM L-glutamine, 100 U/ml penicillin, and 100 μg/ml streptomycin. […]

Experiment [2] has as its system HB-120 B-cell hybridoma (anti-MHC class I). Kind of experiment: HLA-E tetramer staining of control pan-HLA class I specific hybridoma. The class given is binding. The settings on record: HB-120, specific for HLA class I molecules. How it is done:
as §1, §2

In experiment [3] the test system is SF-NK cells, SF-T cells, PB-NK cells. The experiment in a line: HLA-E tetramer staining of freshly isolated SF and PB cells of RA patients. The format is binding, human. The conditions noted are these: for tetramer staining of SF-T cells / tetramer staining of SF-NK cells: RA patient synovial fluid. The source says: Freshly isolated cells from PB (left) and SF (right) of a representative RA patient were stained with control tetramers (mouse H2-Kb molecules conjugated to streptavidine-PE, Y-axis on upper contour plots) and HLA-E tetrameric molecules (which were refolded in the presence of a VMAPRTVLL(SEQ ID NO: 3) peptide) conjugated to streptavidine-PE on Y-axis, lower contour plots) and CD56-FITC (X-axis). A gate was set on CD3-Cycrome-negative lymphocytes.
No staining of SF-NK cells or SF-T cells is observed with HLA-E/hsp60sp (upper row, right contour plot and lower row, right contour plot, respectively). Control tetramer staining (mouse H2-Kb molecules conjugated to streptavidine-PE) is shown to the left.
All 17 patients suffered from arthritis of the knee and had received therapeutic aspiration of SF at the time of analysis. RA patients fulfilled the American College of Rheumatology classification criteria for RA (Arnett, Arthritis Rheum. 31:315-324, 1988, incorporated herein by reference). All patients, except one person diagnosed with early oligoarthritis, received disease-modifying antirheumatic drugs. Extra-articular manifestations among the RA patients included diabetes mellitus (1 patient), Raynaud's phenomenon (2 patients), and secondary Sjögren's syndrome (1 patient). Paired samples of SF and PB from patients, and PB from 8 healthy female controls (mean age 52.7 yrs, range 49-61 yrs) were collected into preservative-free heparin and mononuclear cells were isolated by FICOLL-HYPAQUE (Amersham Pharmacia Biotech, Uppsala, Sweden) density gradient centrifugation according to standard protocols.
The HLA-E expression vector for tetramer production was provided by Dr Veronique Braud (Oxford, UK). Tetrameric HLA-E complexes were generated essentially as described previously (Braud et al., Nature 391:795-799, 1991, incorporated herein by reference). Briefly, HLA-E heavy chain, fused with a BirA substrate peptide (bsp) at the c-terminus, and human beta-2 microglobulin (β2m) were overexpressed in E. coli BL21 pLysS, purified from inclusion bodies and solubilized in a 8M urea solution containing DTT. Complexes of HLA-E-bsp, human β2m and synthetic peptide (VMAPRTVLL (SEC ID NO: 11), derived from the HLA-B*0701 leader sequence, Research Genetics, Huntsville, Ala.) were produced by in vitro refolding of the HLA-E-bsp, human β2m and peptide. Refolded complexes were purified by size exclusion chromatography on a Superose 12 column (Amersham Pharmacia Biotech), and subsequently biotinylated using BirA enzyme (Avidity, Denver, Colo.) following the manufacturers' instructions. Free biotin was removed using NAP-5 desalting columns (Amersham Pharmacia Biotech). The degree of biotinylation was approximately 90%, as assesed by a gel-shift assay. Tetramers were generated by mixing biotinylated HLA-E/β2m/peptide monomers with streptavidin-PE (Sigma) at a 4:1 molar ratio.

The target of a further experiment is T1, CD94/NKG2C (Homo sapiens, UniProt P26717+Q13241).
T1 construct: GFP; expressed in transfected cells; host or cells: mouse Ba/F3 pro-B cells (receptor); E. coli BL21 pLysS (HLA-E and β2m of the tetramer)
The experiment in a line: HLA-E tetramer binding to Ba/F3 cells co-transfected with CD94, NKG2C and DAP12. The settings on record: mouse Ba/F3 pro-B cells, 4° C. for 45 min. How it is done: as §1
K562 (human HLA-class I negative erythroleukemia), and 721.221 (human HLA-class I low B-lymphoblastoid cell) were maintained in RPMI 1640 (Life Technologies, Gaithersburg, Md.) supplemented with 10% heat-inactivated FCS, 2 mM L-glutamine, 100 U/ml penicillin, and 100 μg/ml streptomycin. Two human CD94/NKG2A^+ (but KIR−) cytotoxic NK cell lines (NKL, kindly provided by Dr. M. Robertson, Indiana University School of Medicine, Indianapolis, Ind.), and Nishi (provided by Dr. H. Wakiguchi, Dept of Pediatrics, Kochi Medical School, Japan) were grown in IMDM supplemented with 7% pooled heat-inactivated human AB+ serum, 200 U IL-2/ml (PeproTech Inc, Rocky Hill N.J.), 2 mM L-glutamine, 100 U/ml penicillin, and 100 μg/ml streptomycin (Life Technologies). Ba/F3 cells co-transfected with CD94 and NKG2A, CD94, DAP-12 and NKG2C-GFP or CD94 and DAP-12 have been described previously (Lanier et al., Immunity 6:371-378, 1997, incorporated herein by reference). HB-120 (pan-HLA class I specific hybridoma) was obtained from American Type Culture Collection, Rockville, Md., and was cultured in DMEM supplemented with 10% FCS, 2 mM L-glutamine, sodium pyruvate, HAT, 100 U/ml penicillin, 100 μg/ml streptomycin (Life Technologies). […]

The target of another experiment is T2, CD94/NKG2A (Homo sapiens, UniProt P26715+Q13241).
T2 construct: expressed in transfected cells; host or cells: mouse Ba/F3 pro-B cells (receptor); E. coli BL21 pLysS (HLA-E and β2m of the tetramer)
Kind of experiment: HLA-E tetramer binding to Ba/F3 cells co-transfected with CD94 and NKG2A. The settings on record: mouse Ba/F3 pro-B cells; 4° C. for 45 min. How it is done: as §1, §2

The test system of the next experiment is CD94/NKG2A+ T-cells. Kind of experiment: HLA-E tetramer binding to T cells of peripheral blood from healthy donors. More on the design: species or system human. The source says: To further clarify these mechanisms, studies are comtempated to determine whether CD94[NKG2 expressing human T-cells can be influenced by stressed induced changes in target cells. In this context, analysis of peripheral blood from healthy donors verifies that the subset of CD94/NKG2A^+ T-cells also binds to HLA-E/B7sp tetramers.

“Also recorded” adds a separate entry of the source.

In the case of “HLA-E/B7sp tetramers: biotinylated HLA-E heavy chain, β2m and B7sp peptide monomers mixed with streptavidin-phycoerythrin at a 4:1 molar ratio”, the “tetramer binding to NK cells” value in experiment [1] is listed as “confirmed by staining NK-cell lines”. Also, the “tetramer binding to control B cell hybridoma” value in experiment [2] is given as “bound to a similar extent”. Also, the “tetramer staining of SF-T cells” value in experiment [3] is reported as “a fraction of SF-T cells”. Further, the “tetramer staining of SF-NK cells” value in experiment [3] (freshly isolated cells) is “brightly stain most SF-NK cells; also recorded: brightly stain most SF-NK-cells”; in experiment [3] (freshly isolated cells, listed as HLA-E tetramers) it was “efficiently stained”. In experiment [3] (freshly isolated cells, patient peripheral blood), the “tetramer staining of PB-NK cells” value is recorded as “poorly stained”. In the experiment with CD94/NKG2C, the “tetramer binding to CD94/NKG2C/DAP12 transfectants” value is reported as “efficiently bound”. In addition, the “tetramer binding to CD94/NKG2A transfectants” value with CD94/NKG2A is recorded as “efficiently bound”. Further, the “tetramer binding to T cells” value in the experiment on CD94/NKG2A+ T-cells was “binds”.
For the substance “HLA-E/hsp60sp tetramers: biotinylated HLA-E heavy chain, β2m and hsp60sp peptide monomers mixed with streptavidin-phycoerythrin at a 4:1 molar ratio”, the “tetramer binding to NK cells” value in experiment [1] is given as “failed to bind; also recorded: did not bind”. Moreover, in experiment [2], the “tetramer binding to control B cell hybridoma” value is “bound to a similar extent”. The “tetramer staining of SF-T cells” value in experiment [3] is “No staining”. Besides, the “tetramer staining of SF-NK cells” value in experiment [3] (freshly isolated cells) is listed as “No staining”. In addition, the entries for the “tetramer binding to CD94/NKG2C/DAP12 transfectants” value in the experiment with CD94/NKG2C and with CD94/NKG2C (listed as HLA-E/hsp60sp-tetramers) were “failed to bind; also recorded: did not bind” and “failed to bind”, respectively. Besides, the “tetramer binding to CD94/NKG2A transfectants” value with CD94/NKG2A is listed as “failed to bind”. In the experiment with CD94/NKG2A+ T-cells, the “tetramer binding to T cells” value is on record as “no binding could be detected”.
